Biological target: T1, P61964[22-334]/Q03164[3745-3969]/Q15291/Q9C005/Q9UBL3[2-534] (Homo sapiens, UniProt P61964)
T1 construct: 3745-3969; 2-534
Assay: MLL1-WRAD2 Enzyme Assay
Protocol: Reaction was initiated with 1 μM 3H-SAM and incubated for 1 hour at 30° C. Reaction mixture was transferred to P81 filter-paper and washed with PBS before detection.

## CN1CCN(c2c(F)cc(-c3cc(CN4CCOCC4)ccc3F)cc2NC(=O)c2c[nH]c(=O)cc2C(F)(F)F)CC1 [US11174250, Example 98]
  IC50: 40.1 µM

— BindingDB's records for patent US11174250 (Propellon Therapeutics, 2021)
